Measurements published in ChEMBL document CHEMBL5331077, “Combining pharmacophore models derived from DNA-encoded chemical libraries with structure-based exploration to predict Tankyrase 1 inhibitors” (Eur J Med Chem, 2023).

Target: T1, Poly [ADP-ribose] polymerase tankyrase-1 (Homo sapiens) (UniProt O95271)
T1 sequence (whole entry): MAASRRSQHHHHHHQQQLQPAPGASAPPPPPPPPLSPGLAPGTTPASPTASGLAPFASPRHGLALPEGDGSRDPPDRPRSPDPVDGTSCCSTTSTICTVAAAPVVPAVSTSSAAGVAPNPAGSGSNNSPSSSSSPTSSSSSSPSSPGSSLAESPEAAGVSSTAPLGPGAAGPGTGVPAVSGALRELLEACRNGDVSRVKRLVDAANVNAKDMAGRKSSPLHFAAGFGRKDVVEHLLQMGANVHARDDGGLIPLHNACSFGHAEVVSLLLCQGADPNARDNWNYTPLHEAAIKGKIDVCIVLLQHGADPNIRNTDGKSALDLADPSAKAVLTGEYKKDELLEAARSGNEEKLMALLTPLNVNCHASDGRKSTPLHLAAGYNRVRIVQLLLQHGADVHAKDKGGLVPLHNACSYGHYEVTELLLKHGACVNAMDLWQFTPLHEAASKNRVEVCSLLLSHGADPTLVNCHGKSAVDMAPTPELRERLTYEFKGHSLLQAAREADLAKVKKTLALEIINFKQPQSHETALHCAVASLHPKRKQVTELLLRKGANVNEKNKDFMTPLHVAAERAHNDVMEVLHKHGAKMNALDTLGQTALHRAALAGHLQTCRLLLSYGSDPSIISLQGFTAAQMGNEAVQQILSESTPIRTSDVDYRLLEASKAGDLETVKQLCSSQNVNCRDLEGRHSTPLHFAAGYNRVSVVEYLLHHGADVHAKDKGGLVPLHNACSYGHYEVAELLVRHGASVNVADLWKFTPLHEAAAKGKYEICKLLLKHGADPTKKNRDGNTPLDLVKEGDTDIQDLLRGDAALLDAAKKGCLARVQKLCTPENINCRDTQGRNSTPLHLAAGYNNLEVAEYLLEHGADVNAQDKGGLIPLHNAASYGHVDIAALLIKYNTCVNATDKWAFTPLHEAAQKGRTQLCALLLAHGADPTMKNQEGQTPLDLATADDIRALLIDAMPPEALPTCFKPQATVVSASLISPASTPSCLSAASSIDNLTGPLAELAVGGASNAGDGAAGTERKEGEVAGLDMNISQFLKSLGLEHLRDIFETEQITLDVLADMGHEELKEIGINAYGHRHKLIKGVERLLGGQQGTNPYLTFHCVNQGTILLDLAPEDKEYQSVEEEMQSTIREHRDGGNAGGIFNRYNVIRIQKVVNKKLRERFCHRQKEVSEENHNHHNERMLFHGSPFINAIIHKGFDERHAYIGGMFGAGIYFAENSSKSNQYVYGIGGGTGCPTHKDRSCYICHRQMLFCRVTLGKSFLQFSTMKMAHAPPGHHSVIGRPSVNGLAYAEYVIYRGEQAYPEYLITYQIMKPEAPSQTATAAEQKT
Assay: Potency index, ratio of XAV-939 IC50 to test compound IC50 for inhibition of TNKS1 (unknown origin)

CNC(=O)[C@H](CNC(=O)CCn1c(=O)[nH]c(=O)c2ccccc21)NC(=O)c1cnc2ccccc2c1 gave a Ratio IC50 of 5.6.
